According to ChEMBL document CHEMBL4017505 (J Med Chem, 2017):

Test system: Mus musculus
Assay: Toxicity in CD-1 mouse assessed as motor impairment at 5 to 10 mg/kg, sc treated 30 mins prior to test by rotarod test
Details: in vivo, 0.5 h

**Q.** With `CN(C(=O)Cc1ccc(Cl)c(Cl)c1)C1CCCCC1N1CCCC1` (stereo unspecified) as the compound, how does the Activity read?
**A.** Toxic
